Test results: patent US6004972A, “Therapeutic process for the treatment of the pathologies of type II diabetes” (The Board of Supervisiors of Louisiana State University and …, priority 1998, dated 1999)

Test system: noninsulin dependent (Type II) diabetes
Assay: Timed oral bromocriptine in fifteen persons with noninsulin dependent (Type II) diabetes (Example 5)
Type: in vivo, human
Settings: subjects receiving insulin (7), 4-8 weeks
Procedure: Fifteen persons, diagnosed with noninsulin dependent (Type II) diabetes, were treated with bromocriptine to determine the effects of the treatments on body fat and hyperglycemia. […]
Bromocriptine was taken orally daily at times calculated to reset circadian hormone rhythms to phase relationships that cause loss of body fat. Generally, bromocriptine was administered in the morning within 5 hours after awakening. Nausea was usually avoided by starting with the lower dosage (1.25 mg) for 2-3 days and then raising the dosage levels to 2.5 mg daily. Only mild nausea was observed by less that 10% of the participants and was transient, lasting only for the first few days. The participants were carefully instructed not to alter their daily activity or eating habits during the course of treatment.
Skinfold thickness was measured on the left side of the body by a trained anthropometrist in four regions: biceps, triceps, subscapular, and suprailiac, following the recommendations of the International Biological Program. Because of its frequent use, percent body fat was estimated from the common logarithm of the sum of the four skinfolds, using the equations of Durnin and Rahman and of Siri. […] Blood pressure was also determined at these times. Morning fasting plasma glucose in the diabetic group was determined initially and after 4-8 weeks.

`CC(C)C[C@H]1C(=O)N2CCC[C@H]2[C@]2(O)O[C@](NC(=O)[C@@H]3C=C4c5cccc6[nH]c(Br)c(c56)C[C@H]4N(C)C3)(C(C)C)C(=O)N12` [bromocriptine, 2-bromo-alpha-ergocryptine] was tested, and the “Total Body Weight, final” value (initial 182 ± 9) was 182 ± 10 pounds and the “Plasma Glucose, final (fasting)” value (initial 283 ± 14, p < 0.05) was 184 ± 22 mg/dL.
